Assay results as given in patent US11845808B2, “Peptide inhibitors of interleukin-23 receptor and their use to treat inflammatory diseases” (Janssen Biotech, Inc., priority 2020, dated 2023).
pIC50: −log10 of the molar value.

By UniProt entry, the sequences of proteins in these tests, tags left out. Residues count along the entry.
UniProt Q5VWK5, 24-629 limits assumed: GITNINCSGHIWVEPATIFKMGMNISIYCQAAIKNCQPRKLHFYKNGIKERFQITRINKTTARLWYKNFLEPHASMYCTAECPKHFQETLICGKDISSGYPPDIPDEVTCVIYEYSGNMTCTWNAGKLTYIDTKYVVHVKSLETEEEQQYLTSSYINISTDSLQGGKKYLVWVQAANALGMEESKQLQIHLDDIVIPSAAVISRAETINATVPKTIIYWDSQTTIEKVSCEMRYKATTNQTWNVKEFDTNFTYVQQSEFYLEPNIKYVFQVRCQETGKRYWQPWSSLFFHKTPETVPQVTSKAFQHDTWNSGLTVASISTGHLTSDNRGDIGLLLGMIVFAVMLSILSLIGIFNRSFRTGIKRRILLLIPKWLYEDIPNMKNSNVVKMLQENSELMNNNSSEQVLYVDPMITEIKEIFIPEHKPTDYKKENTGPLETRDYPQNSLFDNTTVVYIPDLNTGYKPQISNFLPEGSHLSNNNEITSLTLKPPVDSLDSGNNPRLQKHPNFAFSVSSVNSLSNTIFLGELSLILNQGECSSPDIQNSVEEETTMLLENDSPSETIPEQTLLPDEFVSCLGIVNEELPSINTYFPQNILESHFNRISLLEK

Columns and labels:
[1] = molecular target: IL-23 induced IFNγ in natural killer (NK) cells (Homo sapiens, UniProt Q5VWK5); test: NK cell based assay (IL-23/IL-18 induced IFNγ); details: IL-23 at EC50 to EC75 and IL-18 10 ng/mL, IFNγ in supernatant after 20 to 24 hours
From the text: Example 3: NK Cell Based Assay

[2] = Stability in human fecal homogenate; type: in vitro ADME; details: 20% human fecal homogenate, 37° C., 20 μM
Procedure: (§1) Studies were carried out in human or cynomlogus monkey fecal homogenate to evaluate gastrointestinal stability of the peptide inhibitors of the present invention.
(§2) Fecal homogenate (20%) was prepared by adding 4 mL of growth medium (1 liter contains 2 g peptone water powder, 2 g yeast extract, 0.1 g NaCl, 0.04 g KH2PO4, 0.01 g CaCl2·6H2O, 0.01 g MgSO4.7H2O, 2 mL Tween 80, 0.5 g bile salts, 0.5 g L-cysteine HCl, 2 g NaHCO3, and 10 μL Vitamin K, pH adjusted to 6.8, and sterilized by filtration through a 0.22 μm filter) to every gram of feces (pooled freshly collected human or cynomolgus monkey feces). The suspension was vortexed to break up large clumps, and homogenized using a bead mill homogenizer. Centrifuged the homogenate at 2800×g for 15 min. The supernatant is taken out and used for incubations. DMSO stocks (10 mM) were first prepared for the test compounds. Incubations were performed in an anaerobic chamber conditioned at 37° C. Aliquots of the DMSO solutions were dosed into 1.0 mL aliquots of 20% fecal homogenate, which are pre-warmed to 37° C. The final test compound concentration was 20 μM. At each timepoint (0, 20 min, 1, 3, 6, or 24 hours), 100 μL aliquot of each incubation mixture is taken out and added to separate tubes containing 300 μL of 50% acetonitrile/50% methanol and an internal standard to terminate the reaction. Samples were taken out of the anaerobic chamber and stored at 4° C. until the end of the experiment. After the final timepoint is sampled, the tubes were mixed and then centrifuged at 3,000 rpm for 10 minutes. Aliquots of the supernatant were removed, diluted 1:1 into distilled water containing 0.1% formic acid, and analyzed by LC/MS/MS. Percent remaining at each timepoint was calculated based on the peak area response ratio of test to compound to internal standard. Time 0 was set to 100%, and all later timepoints were calculated relative to time 0. Half-lives were calculated by fitting to a first-order exponential decay equation using Graphpad or Excel.

[3] = Stability in cynomolgus monkey fecal homogenate; type: in vitro ADME; details: 20% cynomolgus monkey fecal homogenate, 37° C., 20 μM
Procedure: as §1, §2

[4] = Stability in simulated intestinal fluid (SIF); type: in vitro ADME; details: 100 fold dilution of standard SIF concentration, 37° C., 20 μM
Procedure: Studies were carried out in simulated intestinal fluid (SIF) and simulated gastric fluid (SGF) to evaluate gastric stability of the peptide inhibitors of the present invention. In addition, studies were carried out to assess redox stability of the peptide inhibitors of the present invention.
SIF was prepared by adding 6.8 g of monobasic potassium phosphate and 10.0 g of pancreatin to 1.0 L of water. After dissolution, the pH was adjusted to 6.8 using NaOH. DMSO stocks (2 mM) were first prepared for the test compounds. Aliquots of the DMSO solutions were dosed into 6 individual tubes, each containing 0.5 mL of SIF, which is pre-warmed to 37° C. The final test compound concentration was 20 μM. The vials were kept in a benchtop Thermomixer® for the duration of the experiment. At each timepoint (0, 5, 10, 20, 40, 60, or 360 minutes or 24 hours), 1.0 mL of acetonitrile containing 1% formic acid was added to one vial to terminate the reaction. Samples were stored at 4° C. until the end of the experiment. After the final timepoint is sampled, the tubes were mixed and then centrifuged at 3,000 rpm for 10 minutes. Aliquots of the supernatant were removed, diluted 1:1 into distilled water containing internal standard, and analyzed by LCMS/MS. Percent remaining at each timepoint was calculated based on the peak area response ratio of test to compound to internal standard. Time 0 was set to 100%, and all later timepoints were calculated relative to time 0. Half-lives were calculated by fitting to a first-order exponential decay equation using Graphpad.

Stability in rat plasma = type: in vitro ADME; details: SD rat plasma, 37° C., 20 μM
Procedure: Example 6: Stability of Peptide Inhibitors in Rat Plasma
Peptides of interest (20 μM) were incubated with pre-warmed rat plasma (SD rat, mixed gender pooled, EDTA, filtered through 0.22 μm, BioreclamationIVT) at 37° C. Aliquots were taken at various time points up to 24 hours (e.g. 0, 0.25, 1, 3, 6 and 24 hr), and immediately quenched with 4 volumes of organic solvent (acetonitrile/methanol (1:1) and 0.1% formic acid, containing 1 μM internal standard). Quenched samples were stored at 4° C. until the end of the experiment and centrifuged at 4,000 rpm for 10 minutes. The supernatant were diluted 1:1 with deionized water and analyzed using LC-MS. Percentage remaining at each time point was calculated based on the peak area ratio (analyte over internal standard) relative to the initial level at time zero. Half-lives were calculated by fitting to a first-order exponential decay equation using GraphPad.

| Substance | pIC50 [1] | t½: Human Feces anaerobic [2] [h] | t½: Monkey Feces anaerobic [3] [h] | SIF t½ [4] [h] | t½: Rat Plasma EDTA (Stability in rat plasma) [h] |
| --- | --- | --- | --- | --- | --- |
| Ac-[Pen]-N-T-W-[Lys(Ac)]-[Pen]-Phe[4-(2-aminoethoxy)]-[2-Nal]-[THP]-E-N-[3Pal]-[Sarc]-NH2 [Peptide 162] | 10.54 | – | – | – | – |
| Ac-[Pen]-N-T-[(W(7-(3-pyrazol-1-yl))]-[Lys(Ac)]-[Pen]-Phe[4-(2-aminoethoxy)]-[2-Nal]-[THP]-E-N-[3Pal]-[Sarc]-NH2 [Peptide 148] | 10.60 | >24.0 | >24.0 | >24.0 | – |
| Ac-[Pen]-N-T-[W(7-3BiPh)]-[Lys(Ac)]-[Pen]-Phe[4-(2-aminoethoxy)]-[2-Nal]-[THP]-E-N-H-[Sarc]-NH2 [Peptide 68] | 8.97 | >24.0 | >24.0 | >24.0 | >24.0 |
| Ac-[Pen]-N-T-[W(7-(1-Nal))]-[Lys(Ac)]-[Pen]-Phe[4-(2-aminoethoxy)]-[2-Nal]-[THP]-E-N-H-[Sarc]-NH2 [Peptide 71] | 8.54 | >24.0 | >24.0 | >24.0 | >24.0 |
| Ac-[Pen]-N-T-[W(7-CN)]-[Lys(Ac)]-[Pen]-Phe[4-(2-aminoethoxy)]-[2-Nal]-[THP]-E-N-[3Pal]-[Sarc]-NH2 [Peptide 155] | 10.31 | – | – | – | – |
| Ac-[Pen]-N-T-[W(7-Me)]-[Lys(Ac)]-[Pen]-Phe[4-(2-aminoethoxy)]-[2-Nal]-[a-MeLys]-[Lys(Ac)]-N-[2Pal]-NH2 [Peptide 79] | 8.57 | 22.9 | 19 | 0.3 | – |
| Ac-[Pen]-N-T-[W(7-Me)]-[Lys(Ac)]-[Pen]-Phe[4-(2-aminoethoxy)]-[3Quin]-[a-MeLys]-[Lys(Ac)]-N-[2Pal]-NH2 [Peptide 78] | 6.59 | – | – | – | – |
| Ac-[Pen]-N-T-[W(7-Me)]-[Lys(Ac)]-[Pen]-Phe[4-(2-aminoethoxy)]-[W(3-MePh)]-[a-MeLys]-[Lys(Ac)]-N-H-[Sarc]-NH2 [Peptide 43] | – | 23.9 | 24 | >24.0 | >24.0 |
| Ac-[Pen]-N-T-[W(7-Me)]-[Lys(Ac)]-[Pen]-Phe[4-(2-aminoethoxy)]-[W(4-Me)]-[a-MeLys]-[Lys(Ac)]-N-H-[Sarc]-NH2 [Peptide 35] | – | >24.0 | >24.0 | >24.0 | >24.0 |
| Ac-[Pen]-N-T-[W(7-Me)]-[Lys(Ac)]-[Pen]-Phe[4-(2-aminoethoxy)]-[W(4-OMe)]-[a-MeLys]-[Lys(Ac)]-N-H-[Sarc]-NH2 [Peptide 37] | – | >24.0 | 23.5 | >24.0 | >24.0 |
| Ac-[Pen]-N-T-[W(7-Me)]-[Lys(Ac)]-[Pen]-Phe[4-(2-aminoethoxy)]-[W(5-OMe)]-[a-MeLys]-[Lys(Ac)]-N-H-[Sarc]-NH2 [Peptide 42] | – | >24.0 | 15.7 | >24.0 | >24.0 |
| Ac-[Pen]-N-T-[W(7-Me)]-[Lys(Ac)]-[Pen]-Phe[4-(2-aminoethoxy)]-[W(6-Et)]-[a-MeLys]-[Lys(Ac)]-N-H-[Sarc]-NH2 [Peptide 45] | – | >24.0 | 18.4 | >24.0 | >24.0 |
| Ac-[Pen]-N-T-[W(7-Me)]-[Lys(Ac)]-[Pen]-Phe[4-(2-aminoethoxy)]-[W(6-Ph)]-[a-MeLys]-[Lys(Ac)]-N-H-[Sarc]-NH2 [Peptide 44] | – | 22.7 | 23.2 | >24.0 | >24.0 |
| Ac-[Pen]-N-T-[W(7-Me)]-[Lys(Ac)]-[Pen]-Phe[4-(2-aminoethoxy)]-[W(7-Et)]-[a-MeLys]-[Lys(Ac)]-N-H-[Sarc]-NH2 [Peptide 34] | – | >24.0 | >24.0 | >24.0 | >24.0 |
| Ac-[Pen]-N-T-[W(7-Me)]-[Lys(Ac)]-[Pen]-Phe[4-(2-aminoethoxy)]-[W(7-OMe)]-[a-MeLys]-[Lys(Ac)]-N-H-[Sarc]-NH2 [Peptide 40] | – | >24.0 | 19.9 | >24.0 | >24.0 |
| Ac-[Pen]-N-T-[W(7-Me)]-[Lys(Ac)]-[Pen]-Phe[4-(2-aminoethoxy)]-[W(7-Ph)]-[a-MeLys]-[Lys(Ac)]-N-H-[Sarc]-NH2 [Peptide 50] | – | >24.0 | 24.1 | >24.0 | >24.0 |
| Ac-[Pen]-N-T-[W(7-Me)]-[Lys(Ac)]-[Pen]-Phe[4-(2-aminoethoxy)]-[W(7-i-Pr)]-[a-MeLys]-[Lys(Ac)]-N-H-[Sarc]-NH2 [Peptide 38] | – | >24.0 | >24.0 | >24.0 | >24.0 |
| Ac-[Pen]-N-T-[W(7-Me)]-[Lys(Gly)]-[Pen]-Phe[4-(2-aminoethoxy)]-[2-Nal]-[THP]-E-N-[(D)Leu]-[Sarc]-NH2 [Peptide 28] | – | 5.6 | 19.2 | >24.0 | 1 |
| Ac-[Pen]-N-T-[W(7-Me)]-[Lys(Gly)]-[Pen]-Phe[4-(2-aminoethoxy)]-[2-Nal]-[a-MeLys]-[Lys(Ac)]-N-H-[Sarc]-NH2 [Peptide 27] | – | 4.4 | 11.6 | >24.0 | >24.0 |
| Ac-[Pen]-N-T-[W(7-Me)]-[Lys(Gly)]-[Pen]-Phe[4-(2-aminoethoxy)]-[2-Nal]-[a-MeLys]-[Lys(Ac)]-N-[(D)Leu]-[Sarc]-NH2 [Peptide 29] | – | 5.7 | 17.5 | >24.0 | 22.2 |
| Ac-[Pen]-N-T-[W(7-Ph)]-[Lys(Ac)]-[Pen]-Phe[4-(2-aminoethoxy)]-[2-Nal]-[THP]-E-N-[3Pal]-[(D)NMeTyr]-NH2 [Peptide 123] | 10.38 | – | – | >24.0 | >24.0 |
| Ac-[Pen]-N-T-[W(7-Ph)]-[Lys(Ac)]-[Pen]-Phe[4-(2-aminoethoxy)]-[2-Nal]-[a-MeLys]-[Lys(Ac)]-N-[3Pal]-[(D)NMeTyr]-NH2 [Peptide 122] | 10.10 | – | – | >24.0 | >24.0 |
